These are literature values, as cited in patent publication US5665700A, “Pharmaceutical formulations” (Skua Investments Limited, priority 1994, dated 1997).

The conditions of the series: in vivo; cited from earlier work.

For orientation: LD50 means the dose at which mortality reaches 50%. With POE(50) stearic acid, the LD50 is above 25000 mg/kg.
As for POE(100) stearic acid, the LD50 was 25000 mg/kg.
